Measured values taken from ChEMBL document CHEMBL5052829, “Arf6 inhibitors and related methods” (2021).

Experiment: Toxicity in Plasmodium berghei ANKA infected mouse model of cerebral malaria assessed as decrease in animal mortality at 42.75 mg/kg, ip administered daily for 11 days
Format: organism-based
Details: in vivo, 264 h, time 11 day; call rule not given here

**Q.** Which Activity does the source give for `NCCCC[C@H](N)C(=O)Oc1cc([N+](=O)[O-])ccc1-c1cc(=O)[nH]c2c(-c3ccc(Cl)cc3)c(Cc3ccccc3)nn12` here?
**A.** Active
